The source of these data is ChEMBL document CHEMBL2417394, “Exquisite selectivity for human toll-like receptor 8 in substituted furo[2,3-c]quinolines” (J Med Chem, 2013).

Experiment [1] addresses T1, Toll-like receptor 7 (Homo sapiens) (UniProt Q9NYK1).
T1 sequence (whole entry): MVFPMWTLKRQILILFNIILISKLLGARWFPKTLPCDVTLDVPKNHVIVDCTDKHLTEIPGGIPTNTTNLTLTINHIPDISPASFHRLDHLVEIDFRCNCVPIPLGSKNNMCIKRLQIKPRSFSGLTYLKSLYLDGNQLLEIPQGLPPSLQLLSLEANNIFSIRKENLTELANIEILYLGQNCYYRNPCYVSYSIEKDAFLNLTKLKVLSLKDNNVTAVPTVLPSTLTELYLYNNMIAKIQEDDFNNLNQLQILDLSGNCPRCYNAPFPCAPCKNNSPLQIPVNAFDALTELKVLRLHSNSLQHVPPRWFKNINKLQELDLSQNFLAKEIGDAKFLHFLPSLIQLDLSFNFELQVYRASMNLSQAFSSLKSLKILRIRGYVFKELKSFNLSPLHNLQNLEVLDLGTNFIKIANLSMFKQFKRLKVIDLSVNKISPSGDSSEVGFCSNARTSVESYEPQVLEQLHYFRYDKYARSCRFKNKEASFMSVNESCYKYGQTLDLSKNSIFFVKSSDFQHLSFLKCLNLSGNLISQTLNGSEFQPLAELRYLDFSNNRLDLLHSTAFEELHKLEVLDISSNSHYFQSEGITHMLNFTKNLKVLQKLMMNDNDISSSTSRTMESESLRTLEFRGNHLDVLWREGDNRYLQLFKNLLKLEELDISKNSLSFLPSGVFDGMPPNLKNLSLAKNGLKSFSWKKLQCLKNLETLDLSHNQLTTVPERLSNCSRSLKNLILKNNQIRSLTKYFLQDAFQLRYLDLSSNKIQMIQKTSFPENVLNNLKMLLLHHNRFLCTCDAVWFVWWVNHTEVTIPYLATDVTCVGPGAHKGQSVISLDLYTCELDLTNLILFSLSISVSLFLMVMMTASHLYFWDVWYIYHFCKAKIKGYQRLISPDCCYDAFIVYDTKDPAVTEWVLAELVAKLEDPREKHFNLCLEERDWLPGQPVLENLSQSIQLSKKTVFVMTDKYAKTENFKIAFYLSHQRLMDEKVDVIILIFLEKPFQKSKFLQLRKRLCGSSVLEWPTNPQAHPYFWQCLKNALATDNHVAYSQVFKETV
Kind of experiment: Agonist activity at human TLR7 expressed in HEK293 cells co-transfected with MD2 and sAP assessed as induction of NF-kappaB activity by reporter gene assay. The class given is cell-based. In general terms: In a reporter assay the amount or activity of a reporter protein is the signal.

Experiment [2] addresses T1, Toll-like receptor 7 (Homo sapiens). The experiment is described as follows: Agonist activity at human TLR7 in human whole blood assessed as induction of IFNalpha production.

The source made the active and inactive calls. The rule behind the calls is not given here.

As to `CCCCc1cc2c(o1)c(N)nc1ccccc12`, the outcome in experiment [1] and in experiment [2] was inactive.
